Drawing on patent US11389464B2, “Arginase inhibitors as therapeutics” (Mars, Incorporated, priority 2010, dated 2022), this text covers IC50 for one substance.

Protein sequences, listed by entry. Tags and fused reporters are not part of them. Lines headed by an entry give the natural chain unless they say otherwise; changes in a name come on top. Residues count along the entry.
UniProt P78540, 23-354: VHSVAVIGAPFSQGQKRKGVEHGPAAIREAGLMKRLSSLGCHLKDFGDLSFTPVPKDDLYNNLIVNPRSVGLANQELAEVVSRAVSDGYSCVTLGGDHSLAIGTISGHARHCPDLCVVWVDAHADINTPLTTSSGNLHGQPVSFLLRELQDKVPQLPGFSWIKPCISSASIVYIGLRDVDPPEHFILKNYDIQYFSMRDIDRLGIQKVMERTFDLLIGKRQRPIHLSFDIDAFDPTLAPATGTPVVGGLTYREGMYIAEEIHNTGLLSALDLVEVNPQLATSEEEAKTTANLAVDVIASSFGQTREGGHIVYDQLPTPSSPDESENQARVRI
UniProt P05089: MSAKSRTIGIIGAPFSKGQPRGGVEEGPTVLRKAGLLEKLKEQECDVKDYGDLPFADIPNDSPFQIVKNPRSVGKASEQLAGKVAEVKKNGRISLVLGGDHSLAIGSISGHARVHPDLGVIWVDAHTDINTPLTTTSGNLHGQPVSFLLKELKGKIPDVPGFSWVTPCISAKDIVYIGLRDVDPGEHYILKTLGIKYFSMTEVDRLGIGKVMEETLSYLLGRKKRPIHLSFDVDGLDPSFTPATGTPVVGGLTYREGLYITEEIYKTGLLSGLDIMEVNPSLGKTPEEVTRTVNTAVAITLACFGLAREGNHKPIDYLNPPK

pIC50: −log10 of the molar value.

Test [1] addresses human arginase II (ARG II) (Homo sapiens (Human), UniProt P78540). Description: Inhibition of arginase II (ARG II), spectrophotometric urea assay at 530 nm. The conditions noted are these: potency rank 1-5; 37° C., 60 minutes, pH 7.4. In kind it is biochemical. Here is the method: (§1) The assay established the concentration of inhibitor that is required to reduce arginase activity by 50% (IC50), as shown in Table 2 below.
(§2) Inhibition of arginase I (ARG I) and arginase II (ARG II) by Formula I or Formula II compounds is followed spectrophotometrically at 530 nm. The compound to be tested was dissolved in DMSO at an initial concentration 50-fold greater than its final concentration in the cuvette. 10 μl of the stock solution was diluted in 90 μl of the assay buffer that comprises 0.1M sodium phosphate buffer containing 130 mM NaCl, pH 7.4, to which is added ovalbumin (OVA) at a concentration of 1 mg/ml. Solutions of arginase I and II were prepared in 100 mM sodium phosphate buffer, pH 7.4 containing 1 mg/ml of OVA to give an arginase stock solution at a final concentration of 100 ng/ml.
(§3) To each well of a 96-well microtiter plate was added 40 μl of enzyme, 10 μl of an inventive compound and 10 μl of enzyme substrate (L-arginine+manganese sulfate). For wells that were used as positive controls, only the enzyme and its substrate were added, while wells used as negative controls contained only manganese sulfate.
(§4) After incubating the microtiter plate at 37° C. for 60 minutes, 150 μl of a urea reagent obtained by combining equal proportions (1:1) of reagents A and B is added to each well of the microtitcr plate to stop the reaction. […]

In a further test the target is human arginase I (ARG I) (Homo sapiens (Human), UniProt P05089). Description: Inhibition of arginase I (ARG I), spectrophotometric urea assay at 530 nm. In kind it is biochemical. The settings on record: potency rank 1-5; 37° C., 60 minutes, pH 7.4. How it is done:
as §1, §2, §3, §4

Usually pIC50 stands for the IC50 on a negative log10 scale, so that one unit is a factor of ten. Higher therefore signals a small IC50. Consider “(2R,3S)-3-amino-2-(3-boronopropyl)pyrrolidine-3-carboxylic acid [Example 10]”, for which the pIC50 (in test [1]; against human arginase I (ARG I)) was below 5.30 each time.
